Experiment: anti-pS4/S8 blot, Flag-RPA2 in 293T, 2 h after Eto
Conditions: glycan gained; control: Eto only

B1: Replication Protein A2 (RPA2, RPA32): Thiamet-G (TMG) (protein)
parent chain: MWNSGFESYGSSSYGGAGGYTQSPGGFGSPAPSQAEKKSRARAQHIVPCTISQLLSATLVDEVFRIGNVEISQVTIVGIIRHAEKAPTNIVYKIDDMTAAPMDVRQWVDTDDTSSENTVVPPETYVKVAGHLRSFQNKKSLVAFKIMPLEDMNEFTTHILEVINAHMVLSKANSQPSAGRAPISNPGMSEAGNFGGNSFMPANGLTVAQNQVLNLIKACPRPEGLNFQDLKNQLKHMSVSSIKQAVDFLSNEGHIYSTVDDDHFKSTDAE
Question: With B1 as the protein, how does the “other: RPA2 Ser4/Ser8 phosphorylation” value read?
Answer: Its value is “decreases”.
